We go through one compound from ChEMBL document CHEMBL2390867, “Design, synthesis and evaluation of novel tacrine-coumarin hybrids as multifunctional cholinesterase inhibitors against Alzheimer's disease” (Eur J Med Chem, 2013).

Sequences of proteins named here, by UniProt entry; tags and fusion partners are left off.
UniProt P81908, whole entry: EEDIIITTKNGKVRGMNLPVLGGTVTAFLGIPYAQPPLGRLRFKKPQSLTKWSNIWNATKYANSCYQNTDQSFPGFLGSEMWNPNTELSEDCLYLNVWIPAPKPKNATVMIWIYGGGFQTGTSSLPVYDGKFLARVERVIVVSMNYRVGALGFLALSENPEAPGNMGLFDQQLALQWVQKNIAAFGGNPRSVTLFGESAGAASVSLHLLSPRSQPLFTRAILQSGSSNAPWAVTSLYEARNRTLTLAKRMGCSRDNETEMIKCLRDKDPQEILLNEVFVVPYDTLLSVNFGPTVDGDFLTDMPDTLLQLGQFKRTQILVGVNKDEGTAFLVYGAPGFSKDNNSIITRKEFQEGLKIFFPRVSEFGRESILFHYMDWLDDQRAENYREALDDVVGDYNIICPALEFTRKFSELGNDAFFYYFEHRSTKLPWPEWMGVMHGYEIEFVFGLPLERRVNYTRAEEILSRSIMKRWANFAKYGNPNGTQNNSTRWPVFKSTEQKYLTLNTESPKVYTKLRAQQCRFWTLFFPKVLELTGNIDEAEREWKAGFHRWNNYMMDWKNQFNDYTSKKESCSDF

For this assay, the target named is Cholinesterase (Equus caballus, UniProt P81908).

On to `O=c1ccc2ccc(O)cc2o1` [UMBELLIFERONE], for which the IC50 is greater than 500 µM.

The term IC50 denotes the concentration needed to halve the response being measured.
